Measured values: publication PMC6142812 (Bioorganic & medicinal chemistry letters, 2018)

Amino acid sequences for entries named in this document (tags omitted). Residues count along the entry.
UniProt P41594, 21-1212: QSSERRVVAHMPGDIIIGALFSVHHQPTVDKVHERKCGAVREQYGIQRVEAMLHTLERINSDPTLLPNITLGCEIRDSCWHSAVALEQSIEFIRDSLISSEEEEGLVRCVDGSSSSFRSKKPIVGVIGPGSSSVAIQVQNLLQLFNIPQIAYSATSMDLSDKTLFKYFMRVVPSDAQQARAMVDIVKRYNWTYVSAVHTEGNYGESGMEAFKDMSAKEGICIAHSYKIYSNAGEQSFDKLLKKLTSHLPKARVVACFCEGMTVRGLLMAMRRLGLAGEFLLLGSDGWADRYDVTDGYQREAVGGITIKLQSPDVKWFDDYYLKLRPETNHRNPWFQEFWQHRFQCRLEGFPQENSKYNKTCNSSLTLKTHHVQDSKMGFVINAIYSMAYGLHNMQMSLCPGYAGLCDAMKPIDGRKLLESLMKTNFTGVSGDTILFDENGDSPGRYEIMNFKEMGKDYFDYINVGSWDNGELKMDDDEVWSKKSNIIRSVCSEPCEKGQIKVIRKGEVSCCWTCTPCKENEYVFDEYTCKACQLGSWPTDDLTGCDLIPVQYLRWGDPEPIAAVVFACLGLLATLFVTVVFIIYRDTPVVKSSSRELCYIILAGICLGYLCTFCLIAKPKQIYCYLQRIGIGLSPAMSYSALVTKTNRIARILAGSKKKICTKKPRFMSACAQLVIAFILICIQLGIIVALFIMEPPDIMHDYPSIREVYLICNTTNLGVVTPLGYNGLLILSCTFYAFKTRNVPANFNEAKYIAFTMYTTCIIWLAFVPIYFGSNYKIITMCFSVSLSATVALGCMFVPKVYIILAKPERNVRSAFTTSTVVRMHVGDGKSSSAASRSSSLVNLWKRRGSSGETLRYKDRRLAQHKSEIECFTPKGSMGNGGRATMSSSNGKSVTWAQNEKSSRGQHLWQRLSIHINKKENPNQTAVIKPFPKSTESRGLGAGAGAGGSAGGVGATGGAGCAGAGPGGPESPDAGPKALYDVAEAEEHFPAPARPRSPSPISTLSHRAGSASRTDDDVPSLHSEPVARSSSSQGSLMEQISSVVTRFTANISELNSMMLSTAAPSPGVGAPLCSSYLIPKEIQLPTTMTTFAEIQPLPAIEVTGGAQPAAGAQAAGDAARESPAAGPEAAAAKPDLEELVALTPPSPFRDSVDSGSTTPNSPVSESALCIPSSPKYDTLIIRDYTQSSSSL

What was measured:
[1] = tested on: other seven mGlu receptors
human mGlu5 = human mGlu5 (Homo sapiens, UniProt P41594)

In the case of `Cc1csc(NC(=O)c2cc(C(F)(F)c3cncnc3)cc3cccnc23)n1` [Compound 27, 6-(Difluoro(pyrimidin-5-yl)methyl)-N-(4-methylthiazol-2-yl)quinoline-8-carboxamide], the “activity versus the other seven mGlu receptor subtypes (in words)” value [1] is reported as “inactive” and the “effect on glutamate CRC (in words)” value (human mGlu5) is reported as “fully blocked the glutamate CRC”.
